The source of these data is paper PMC3596469 (European journal of pharmaceutical sciences : official …, 2013).

The chains behind the UniProt entries cited, without tags or fusion partners. Where a name states a change or a piece, a line headed by the entry shows the natural chain unless it says otherwise.
UniProt P34914: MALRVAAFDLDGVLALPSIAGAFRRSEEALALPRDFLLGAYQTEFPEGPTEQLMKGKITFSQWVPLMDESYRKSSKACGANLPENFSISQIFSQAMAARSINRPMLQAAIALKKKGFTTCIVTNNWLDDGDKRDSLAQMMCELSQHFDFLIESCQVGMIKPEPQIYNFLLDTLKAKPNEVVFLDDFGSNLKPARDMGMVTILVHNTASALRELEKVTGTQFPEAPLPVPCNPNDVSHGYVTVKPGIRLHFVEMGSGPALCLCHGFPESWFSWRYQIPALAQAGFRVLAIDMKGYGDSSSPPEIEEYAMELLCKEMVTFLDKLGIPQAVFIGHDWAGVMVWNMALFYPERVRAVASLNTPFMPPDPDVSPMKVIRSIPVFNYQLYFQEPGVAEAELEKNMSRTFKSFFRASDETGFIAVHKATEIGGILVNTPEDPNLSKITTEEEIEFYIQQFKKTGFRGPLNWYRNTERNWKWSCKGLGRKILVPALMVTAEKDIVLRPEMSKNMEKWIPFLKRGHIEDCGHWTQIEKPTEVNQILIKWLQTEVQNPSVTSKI

One assay addresses Murine sEH (Mus musculus, UniProt P34914). As to the kind of experiment: Fluorescent-based sEH inhibition assay. To be noted: read-out: IC50 Murine sEH; pH 7.
In assay [1] the test system is LPS-induced release of inflammatory cytokines in plasma. As to the kind of experiment: Plasma cytokines in LPS-challenged murine model. To be noted: LPS-challenged mice.

Regarding `CC(=O)N1CCC(NC(=O)NC23CC4CC(CC(C4)C2)C3)CC1` [APAU, 1-(1-acetypiperidin-4-yl)-3-adamantanylurea], the concentration for half-maximal inhibition (IC50) at Murine sEH was 9 nM. As for `O=C(NC12CC3CC(CC(C3)C1)C2)N[C@H]1CC[C@H](Oc2ccc(C(=O)O)cc2)CC1` [t-AUCB, trans-4-[4-(3-adamantan-1-yl-ureido)-cyclohexyloxy]-benzoic acid, reference compound], in assay [1], the “reduction of cytokine or chemokine release one day after treatment” value is listed as “Neither the administration of TPPU nor the t-AUCB treatment demonstrated a beneficial effect”.
